Experimental findings from publication PMC11870037 (Molecules, 2024) are described below.

The chains behind the UniProt entries cited, without tags or fusion partners. Residues count along the entry.
UniProt Q63380, 1-617: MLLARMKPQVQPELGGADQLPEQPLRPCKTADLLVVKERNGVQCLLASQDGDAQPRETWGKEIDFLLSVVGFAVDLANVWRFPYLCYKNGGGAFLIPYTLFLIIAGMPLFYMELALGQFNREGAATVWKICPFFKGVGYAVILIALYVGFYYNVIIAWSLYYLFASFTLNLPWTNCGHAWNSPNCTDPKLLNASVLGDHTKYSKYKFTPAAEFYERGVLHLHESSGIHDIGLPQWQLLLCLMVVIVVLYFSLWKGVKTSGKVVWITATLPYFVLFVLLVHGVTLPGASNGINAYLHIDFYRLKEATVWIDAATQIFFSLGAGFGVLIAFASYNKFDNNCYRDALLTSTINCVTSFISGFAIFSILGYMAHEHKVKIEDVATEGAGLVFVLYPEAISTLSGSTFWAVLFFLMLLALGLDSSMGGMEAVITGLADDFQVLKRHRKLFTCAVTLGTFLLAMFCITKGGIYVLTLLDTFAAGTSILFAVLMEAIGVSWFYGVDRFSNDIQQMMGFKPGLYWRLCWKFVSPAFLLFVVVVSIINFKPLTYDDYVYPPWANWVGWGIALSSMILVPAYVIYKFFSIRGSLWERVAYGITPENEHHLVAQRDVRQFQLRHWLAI

Molecules are shown by their SMILES.

As a reminder, the IC50 is the concentration at which inhibition is half-maximal. Low readings indicate greater potency, high ones weaker potency.

The target in this assay is NET (Rattus norvegicus, UniProt Q63380). Put plainly: Monoamine uptake transporter assay, [3H]NE uptake by NET. The assay is classed as biochemical. Conditions: antagonist assay.

Take `CNCCC(Oc1ccccc1OC)c1ccccc1` (stereo not shown) [Nisoxetine, reference compound]: half-maximal inhibition (IC50) required 37.4 nM.
